## Yeast mating assay B: variants of the scFv Ab-14

Data: MIT Lincoln Laboratory AlphaSeq set, Li et al. 2023, doi:10.1038/s41467-023-39022-2, as distributed in FLAb.

Target peptide (SARS-CoV-2 spike, HR2 region): PDVDLGDISGINAS

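These sequences belong to a second round, designed from the earlier measurements on random variants of the parent. Group labels follow the data file (Ctrl: baseline library sampled from a position-specific scoring matrix, with some repeated check sequences; GP: Gaussian process model; Gen: genetic algorithm; a sequence that several methods proposed may carry one label only). Affinity was read by AlphaSeq, a pooled yeast mating assay with surface-displayed partners. The frequency of each diploid, read from paired DNA barcodes, reflects how well the two displayed proteins bind. Scores were corrected for input abundance and mapped to Kd with protein pairs of known affinity run in the same pool. The assay was run in six technical replicates.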

The variants keep the heavy chain, the linker and the frameworks of Ab-14 (scFv order VH, the linker GGGGSGGGGSGGGGS, VL).
VH: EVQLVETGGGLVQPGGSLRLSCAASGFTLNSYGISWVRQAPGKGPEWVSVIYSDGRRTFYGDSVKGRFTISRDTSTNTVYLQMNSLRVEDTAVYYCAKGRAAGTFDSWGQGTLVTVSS
VL: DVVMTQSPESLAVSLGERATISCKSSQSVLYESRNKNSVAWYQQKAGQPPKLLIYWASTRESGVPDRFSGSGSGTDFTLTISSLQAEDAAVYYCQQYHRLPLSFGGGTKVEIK

The parent's light chain CDRs are KSSQSVLYESRNKNSVA, WASTRES, QQYHRLPLS; each variant's own CDRs replace them letter for letter. Numbers give log10(Kd / nM), so 0 is 1 nM and 3 is 1 µM. Smaller is tighter. A pair that was not seen in that replicate is written "nd"; this usually means weak binding, but a binder can also be missed. Of ten entries with the parent sequence, four were seen in most replicates (averages 0.34 to 2.37), three in one and three in none, so single entries are noisy. Some sequences occur more than once in the pool; their replicates are listed entry by entry, parted by semicolons. Background: pairings of all light chain designs with three empty control strains gave a value in 4% of cases (median 2.64, 5th percentile 1.59). Values in that range, when seen in few replicates, are hard to tell from nonspecific mating. For each scFv, signals with the empty controls are counted beside the result, with their mean in brackets. In the paper, a design with two or fewer of six values counts as a poor binder. The range of this assay differs from that of the first round, and the authors advise against merging the two.

CDR-L1,CDR-L2,CDR-L3,group,"replicates, log10 nM",control signals
KISQGVLYESRNKNNVA,DASTRES,QQYHRLPLS,Ctrl,-0.17 -0.35 -0.42 -0.32 -0.44 -0.20,1/18 (2.46)
KSSQSVLYESRNKNSVA,DASTRCS,QQWHRLPLS,Ctrl,-0.02 -0.11 -0.31 -0.11 -0.09 -0.21,0/18
KSSQSVPYEWRNKNSVA,WASTRES,QQYHRLPLS,Ctrl,nd 2.22 1.34 1.29 2.66 nd,0/18
QISQSVLDESRNKNSVA,WASTRES,QQYHRLPLS,Ctrl,1.20 1.02 1.07 0.85 0.81 0.99,1/18 (2.03)
KSSQMVLYESNNKNSVA,WASTRES,QQYHRLPLS,Ctrl,2.68 2.35 1.92 1.50 2.13 2.36,1/18 (2.73)
KSSQSVLYPSRNKNSVA,WASTREM,QQYHRLPLS,Ctrl,nd 2.03 nd 1.49 2.52 2.63,0/18
KSSQSVLYESRNKNSVA,WASTRES,QQYHRLPLT,Ctrl,1.75 2.39 1.10 2.03 1.67 2.20,1/18 (1.51)
SQSQSHLYESRNKNSVA,WASQRES,QQYHRLPWS,Ctrl,2.03 nd nd 2.56 nd nd,2/18 (2.13)
KMSQSVLYESRNDNSVA,AASTREA,QAYHRLPLS,Ctrl,0.80 0.84 0.42 0.72 0.61 0.77,2/18 (3.80)
KSSESVLYQSRNKNSVA,WASTRES,QQYHRLPLS,Ctrl,-0.03 0.18 0.04 -0.17 -0.03 0.27,0/18
KSSQSVSYESRNKNSVA,WASTRES,QQYHRLPFS,Ctrl,nd 1.93 0.92 1.22 1.86 2.06,1/18 (1.93)
KSSQSLLYESRNKVSVA,KASTRES,QQYHRLPLS,Ctrl,2.47 2.23 2.26 2.04 1.07 2.07,0/18
KSSNSWLYESRNKNSVA,WASTRES,QQYHRLPLS,Ctrl,0.56 0.22 0.44 0.43 0.47 1.04,1/18 (2.51)
KSSQSVLNESRNKNSVA,NASTRES,QQYHVLPLS,Ctrl,0.14 0.01 -0.06 0.06 -0.03 0.16,1/18 (3.75)
KFSQSVLYESRNKNSVA,HASTRYS,QQYYQLPLS,Ctrl,0.05 -0.15 -0.22 -0.23 0.03 0.00,2/18 (2.62)
RVSQSFLYEARPVNSVA,WASTRES,LQYHRLPLS,Ctrl,nd nd nd nd nd nd,0/18
KSSQSVLQESRNKNSVA,WASTRES,TQYHRLPLS,Ctrl,nd nd nd nd nd nd,1/18 (3.85)
KSSQPVLYEDRFKNSVA,WASTRES,QSYFRLPLS,Ctrl,nd nd 2.66 2.61 nd 3.15,0/18
KSSQSVLYESNNKNSVA,DASTRES,QQYHREPLS,Ctrl,1.62 0.94 1.44 1.26 1.22 1.18,1/18 (2.33)
KHSQSFLYISRQQNSVA,WASTRES,QQYHRLPLD,Ctrl,nd nd nd nd nd nd,0/18
KSSQSVLYESRGKNSVA,WASTRES,QQYHRLPLE,Ctrl,nd nd 1.73 1.78 nd nd,0/18
KDSQSWLYESRNKNSVA,QASTRES,QQYQRLPLS,Ctrl,1.77 1.20 0.77 0.79 1.18 1.69,0/18
KSSQSVLKESANKNSVA,GASTRES,QYYHRLPLS,Ctrl,0.81 0.88 1.11 0.90 0.93 0.94,0/18
KSSQSVPYASRNKNSVA,WASTRES,QQYHRLPLS,Ctrl,2.23 1.54 2.19 2.85 2.93 1.88,1/18 (2.05)
KLSTSVLYESRNKNQVA,SASTRES,QQYHRLPLS,Ctrl,-0.36 -0.28 -0.46 -0.57 -0.38 -0.30,0/18
KMSYSDAYESRNKNGVA,WASTRES,QQYHRLYLS,Ctrl,nd nd nd nd nd nd,0/18
KFSQSVLYESRNKNSVA,YASTRES,QQYHRLPLS,Ctrl,0.82 0.28 0.37 0.33 0.05 0.63,0/18
KSSQSVLYESNNKNSVA,WASTRES,QQYCRLPLS,Ctrl,nd 1.83 nd 2.49 1.34 1.62,0/18
KSSQSVEYESRWKNSVA,HASTREY,QQYHRFPLD,Ctrl,1.68 3.46 2.01 1.60 2.97 1.47,2/18 (2.55)
KSSQSVTYESDNKNSVA,WASTRES,QQYHRLPLS,Ctrl,1.01 0.77 0.43 0.80 1.01 1.33,0/18
KISQSVLYESRNKNSVA,WASTRED,QQYHRLPLS,Ctrl,0.34 0.98 0.97 0.06 0.45 1.14,1/18 (2.11)
KSSQSVLYESLNKNSVA,KASTRES,QQYHRLPLS,Ctrl,1.04 1.04 0.63 0.95 1.56 1.12,0/18
KSSQSVLYESRNKNSVA,WASTRES,QQYERLPLS,Ctrl,1.80 1.26 nd nd 1.97 1.99,0/18
KCSQSVLYASRNKNSVA,AASTRSS,QQYHRLPLS,Ctrl,0.72 0.48 0.45 0.57 0.56 0.73,1/18 (4.72)
QSSQSVLYESSNKNSVA,WASTRES,QQYHRLPLS,Ctrl,0.62 2.01 1.72 0.37 0.81 1.08,0/18
KSSQSVLYESRNENSVA,WASTRES,QQYHRLPLS,Ctrl,1.08 0.44 0.59 0.47 0.41 1.13,0/18
KSSQSCLNESLNKNSVA,NASTRLS,QQYHRLPLS,Ctrl,1.03 1.30 0.48 0.69 0.66 0.53,0/18
KSSQSYLYESRNKNSVA,QASTPES,QQYHRYPLS,Ctrl,nd nd nd 2.24 nd nd,0/18
KVSQSVLYESRNKNSVA,EASTRES,QQYHRLPLS,Ctrl+GP_Gen,-0.39 -0.14 -0.19 -0.53 -0.45 -0.18; 0.13 0.37 -0.40 -0.19 -0.25 -0.20,0/36

For reference, 2 entries of the list once more:

CDR-L1,CDR-L2,CDR-L3,group,"replicates, log10 nM",control signals
KSSQSVLKESANKNSVA,GASTRES,QYYHRLPLS,Ctrl,0.81 0.88 1.11 0.90 0.93 0.94,0/18
KSSQPVLYEDRFKNSVA,WASTRES,QSYFRLPLS,Ctrl,nd nd 2.66 2.61 nd 3.15,0/18